In patent publication US20040259878A1, “Fluoromethotrexates and uses therefor” (priority 2003, published 2004):

Key:
[1] = 400 mg/kg i.v. bolus
[2] = tested on: human prostate cancer LNCaP tumor xenograft; settings: 400 mg/kg i.v. bolus, 9 minutes per spectrum
[3] = tested on: HT-1080, M-805 and HS-16 cell lines; settings: three cell lines; 24 hour drug exposure; data not shown

N-(2-Fluoro-4-amino-4-deoxy-N-methyl-pteroyl)-L-glutamic acid [FMTX]
time of peak tumor tissue concentration post-administration (HS-16 tumor xenograft; 400 mg/kg i.v. bolus, HS-16 tumor): 126 min
peak tumor tissue concentration (HS-16 tumor xenograft; 400 mg/kg i.v. bolus, HS-16 tumor, 19F MR): 0.31 ± 0.15 mM
intratumor 19F-MR observable concentration (HS-16 tumor xenograft; mouse, in vivo): 0.10 ± 0.08 mM
time of peak tumor tissue concentration post-injection (M-805 tumor xenograft; 400 mg/kg i.v. bolus, M-805 tumor): 72 min
peak tumor tissue concentration (M-805 tumor xenograft; 400 mg/kg i.v. bolus, M-805 tumor, 19F MR): 0.19 ± 0.08 mM
intratumor 19F-MR observable concentration (M-805 tumor xenograft; mouse, in vivo): 0.10 ± 0.05 mM
plasma concentration ([1]; 30 minutes post-injection): 320000 ± 20000 nM
plasma concentration ([1]; 4 hours post-injection): 1700 ± 300 nM
plasma concentration ([1]; 24 hours post-injection): 180 ± 90 nM
[FMTX]plasma at t=0 min, estimate from fit ([1]; extrapolated from fit): 0.482 mM
A, amplitude of fast-washout component of biexponential plasma decay ([1]; fit to Eqn. 2): 0.480 mM
B, amplitude of slow-washout component of biexponential plasma decay ([1]; fit to Eqn. 2): 0.00247 mM
rate-constant k1, fast-washout component ([1]; plasma): 1.74 h⁻¹
rate-constant k2, slow-washout component ([1]; plasma): 0.11 h⁻¹
t1/2, fast-washout component ([1]; plasma): 0.399 h
t1/2, slow-washout component ([1]; plasma): 6.3 h
time of peak tumor tissue concentration post-injection (HT-1080 tumor xenograft; 400 mg/kg i.v. bolus, HT-1080 tumor): 234 min
peak tumor tissue concentration (HT-1080 tumor xenograft; 400 mg/kg i.v. bolus, HT-1080 tumor, 19F MR): 0.54 ± 0.15 mM
intratumor 19F-MR observable concentration (HT-1080 tumor xenograft; mouse, in vivo): 0.54 ± 0.15 mM
tumor uptake detectable in vivo by 19F MR [2]: readily detectable
in vitro cytotoxic potency compared with MTX [3]: equipotent

Where two headings read alike, the source gives them in different places.
